Source: PubChem BioAssay AID743279 (National Center for Advancing Translational Sciences (NCATS), 2014)
This is a selection; strong and weak results do not stand in their true shares. Inconclusive results are not listed. Active and inactive are the calls of the source. No stated cut-off is given here; in the data, active means activity change below about -50%; inconclusive means mostly about -30% to -49%; inactive means weaker than that.

Assay: qHTS for Inhibitors of Inflammasome Signaling: IL-1-beta AlphaLISA Primary Screen
Conditions: THP-1 LPS/ATP IL-1B secretion, 16 h; at 57.5 µM, stronger effect = lower value
Source text: Inflammasomes are a set of intracellular multi-protein complexes that enable autocatalytic activation of inflammatory caspases and drive the innate immune response to counter harmful agents. […] A qHTS assay, based on AlphaLISA technology, was developed to screen the Molecular Libraries Small Molecule Repository (MLSMR) to look for novel inflammasome inhibitors. The assay detects IL-1B using AlphaLISA anti-IL-1B acceptor and donor beads. A decreased emission signal, indicating reduced IL-1B secretion, is the desired outcome for this assay. NIH Chemical Genomics Center [NCGC] NIH Molecular Libraries Probe Centers Network [MLPCN] MLPCN Grant: MH095513 Assay Provider: Shyam Biswal Ph.D., Johns Hopkins University Immunity. 2012 Jul 27;37(1):85-95. PMID: 22819042 [2] Curr Pharm Des. 2012;18(16):2320-8. PMID: 22390695
Three microliters containing 3000 THP-1 cells were dispensed into the wells of solid, white, tissue culture treated Greiner 1,536-well plates. Library compounds and positive control, Glyburide, were pin-transferred (23 nL) by a Kalypsys pin-tool equipped with a 1,536-pin array, resulting in final compound concentration ranges of 2.5 nM to 57.5 uM. After 1 hr of cell culture incubation (37 °C, 5% CO2), 1 microL of 1 microg/mL lipopolysaccharide (250 ng/mL, final) and 5 mM ATP (1.25 mM, final) were added to stimulate the cells. After 16 hr of cell culture incubation with the compounds, 1.5 uL of anti-IL-1B acceptor beads (6 ug/mL, final) and biotinylated antibody (0.6 nM, final) were added to the plate, followed by a 1 hr incubation at ambient temperature. To detect the secreted IL-1B, 1.5 uL of AlphaLISA SA-Donor beads (24 ug/mL, final) were added, followed by 30 min of incubation in the dark at ambient temperature. The AlphaLISA signal was read by a PerkinElmer EnVision plate reader with an ultrasensitive luminescence detector and 1536 Plate HTS AlphaScreen aperture (excitation of 680nm and emission of 615nm).
On the % scale 0 is the no-effect control and ±100 the full control effect.

Row | Structure (SMILES) | activity change
1 | COc1ccc(NP(C)(=O)Oc2ccccc2OC)cc1 (stereo not given) | inactive: 12%
2 | CN(C)CCOC(=O)C(O)(c1ccccc1)C1CCCCC1 (stereo not given) | inactive: -3.9%
3 | COc1ccc(OP(C)(=O)Nc2cccc(Br)c2)cc1 (stereo not given) | inactive: 8.56%
4 | Cc1c(C(c2ccc3c(c2)OCO3)c2c(C)n(C)n(-c3ccccc3)c2=O)c(=O)n(-c2ccccc2)n1C.O=[N+]([O-])c1cc([N+](=O)[O-])c(O)c([N+](=O)[O-])c1 | inactive: 12.6%
5 | Cc1cc(-c2cccc3ccccc23)c(C)cn1.O=[N+]([O-])c1cc([N+](=O)[O-])c(O)c([N+](=O)[O-])c1 | inactive: 37.1%
6 | O=[N+]([O-])c1ccc(OP2(=O)COCCO2)cc1 (stereo not given) | inactive: 2.91%
7 | CCOP(C)(=S)SCC(=O)NC(C)(CC)C(=O)O (stereo not given) | inactive: -10.5%
8 | CP(=O)(Nc1ccc(SC(F)(F)F)cc1)Oc1ccc(F)cc1 (stereo not given) | inactive: -13.7%
9 | O=[N+]([O-])c1cc([N+](=O)[O-])c(C(F)(F)F)c([N+](=O)[O-])c1O | inactive: 42.8%
10 | Cc1ccccc1NP(C)(=O)Nc1ccccc1C | inactive: 7.68%
11 | CP(=O)(Nc1ccc2c(c1)OCCO2)Oc1ccccc1 (stereo not given) | inactive: -13.7%
12 | CC(C)c1ccc(OP(C)(=O)Nc2ccc(SC(F)(F)F)cc2)cc1 (stereo not given) | active
13 | O=C(OCCN1CCN(CCOCc2ccccc2)CC1)C(O)(c1ccccc1)c1ccccc1 | inactive: -13.5%
14 | COc1ccc(OP(C)(=O)Nc2ccc(SC(F)(F)F)cc2)cc1 (stereo not given) | active
15 | CCOC(=O)c1ccc(NP(C)(=O)Oc2ccc(F)cc2)cc1 (stereo not given) | inactive: 12.4%
16 | CCCCCOc1ccc(NP(C)(=O)Oc2ccc(Cl)cc2Cl)cc1 (stereo not given) | inactive: -18.6%
17 | CP(=O)(Nc1ccccc1)Oc1ccc(F)cc1 (stereo not given) | inactive: -4.8%
18 | Cc1c([N+](=O)[O-])cc([N+](=O)[O-])c(Br)c1[N+](=O)[O-] | inactive: -0.836%
19 | COc1ccc(OP(C)(=O)Nc2ccccc2Br)cc1 (stereo not given) | inactive: 0.532%
20 | COc1ccccc1OP(C)(=O)Nc1ccc(C)c(C)c1 (stereo not given) | inactive: -4.19%
21 | Cc1cc(C)cc(OP(C)(=O)Nc2cccc(C(F)(F)F)c2)c1 (stereo not given) | inactive: -23.1%
22 | CP(=O)(Nc1ccc(Cl)cc1Cl)Oc1ccccc1 (stereo not given) | inactive: -7.31%
23 | CCCCCCCCCCCCCCCC1C[N+](C)(C)CCOP(C)(=O)O1 (stereo not given) | active
24 | CP(=O)(OCCOc1ccccc1)OCCOc1ccccc1 | inactive: 18.4%
25 | CN(C)CCOC(=O)C(O)(c1ccccc1)C1CCCC1 (stereo not given) | inactive: 11%
26 | COc1ccccc1OP(C)(=O)Nc1ccc(Br)cc1 (stereo not given) | inactive: -12.5%
27 | CCc1ccc(OP(C)(=O)O)cc1 | inactive: 2.96%

Row | Structure (SMILES) | activity change
28 | COc1ccccc1OP(C)(=O)Nc1ccc(C)cc1C (stereo not given) | inactive: -1.53%
29 | CP(=O)(Nc1ccccn1)Oc1ccccc1 (stereo not given) | inactive: -2.84%
30 | Cc1c(NP(C)(=O)Oc2ccc(C(C)C)cc2)c(=O)n(-c2ccccc2)n1C (stereo not given) | inactive: 12%
31 | O=[N+]([O-])c1cc([N+](=O)[O-])c(Nc2ccccn2)c([N+](=O)[O-])c1 | active
32 | CCc1ccc(OP(C)(=O)Nc2cccnc2)cc1 (stereo not given) | inactive: 3.81%
33 | CP(=O)(Oc1ccccc1)N1CCOC1=O (stereo not given) | inactive: 5.17%
34 | O=C(OCCCN1CCCC1)C(O)(c1ccccc1)C1CCCCC1 (stereo not given) | inactive: -6.09%
35 | COc1ccccc1OP(C)(=O)Nc1c(C)n(C)n(-c2ccccc2)c1=O (stereo not given) | inactive: 5.78%
36 | COc1ccc(OP(C)(=O)Nc2ccc(Br)cc2)cc1 (stereo not given) | inactive: -8.77%
37 | CCN(CC)CC(O)COC(=O)C(O)(c1ccccc1)C1CCCCC1 (stereo not given) | inactive: -22.4%
38 | CN(C)C(=O)c1c([N+](=O)[O-])cc([N+](=O)[O-])cc1[N+](=O)[O-] | inactive: 1.19%
39 | CC(C)(C)c1ccc(OP(C)(=O)O)cc1 | inactive: 16.5%
40 | CP(=O)(OC12CC3CC(CC(C3)C1)C2)OC12CC3CC(CC(C3)C1)C2 | inactive: -2.91%
41 | CCOC(=O)c1ccc(NP(C)(=O)Oc2ccc(Cl)cc2)cc1 (stereo not given) | inactive: 12.6%
42 | Nc1ccc2c(ccc3cccnc32)n1.O=[N+]([O-])c1cc([N+](=O)[O-])c(O)c([N+](=O)[O-])c1 | inactive: 0%
43 | COc1ccccc1OP(C)(=O)Nc1ccccc1 (stereo not given) | inactive: 4.04%
44 | CP(=O)(Nc1ccccc1Br)Oc1ccccc1 (stereo not given) | inactive: 10.6%
45 | CP(=S)(Nn1cnnc1)Oc1ccccc1 (stereo not given) | inactive: -3.44%
46 | Cc1cc(C)cc(OP(C)(=O)Nc2ccc(SC(F)(F)F)cc2)c1 (stereo not given) | active
47 | CP(=O)(NC(=O)Nc1ccccc1)Oc1ccccc1 (stereo not given) | inactive: 13.6%
48 | CP(=O)(Oc1ccccc1)OC(c1ccccc1)C(F)(F)F (stereo not given) | inactive: -6.12%
49 | CP(=O)(Nc1ccc(SC(F)(F)F)cc1)Oc1ccc(Cl)cc1 (stereo not given) | inactive: -8.51%
50 | Cc1cccc(C)c1OP(C)(=O)Nc1ccc(SC(F)(F)F)cc1 (stereo not given) | inactive: 39.8%
51 | CP(=O)(Nc1ccccn1)Oc1ccc(Cl)cc1 (stereo not given) | inactive: 9.45%
52 | CCOP(C)(=S)SCC(=O)NC(C)C(=O)O (stereo not given) | inactive: 0%
53 | O=[N+]([O-])c1cc([N+](=O)[O-])c(O)c([N+](=O)[O-])c1.c1ccc(Oc2ccncc2)cc1 | inactive: -3.1%
54 | CCOC(=O)c1ccc(NP(C)(=O)Oc2ccc(OC)cc2)cc1 (stereo not given) | inactive: -0.769%

Row | Structure (SMILES) | activity change
55 | CCN(CC)CCCOC(=O)C(O)(c1ccccc1)c1ccccc1 | inactive: -12.5%
56 | COc1ccccc1-c1ccccn1.O=[N+]([O-])c1cc([N+](=O)[O-])c(O)c([N+](=O)[O-])c1 | inactive: 26.1%
57 | Cc1cccc(C)c1OP(C)(N)=O (stereo not given) | inactive: -17.5%
58 | CC(C)(C)c1ccc(OP(C)(=O)Nc2ccc(SC(F)(F)F)cc2)cc1 (stereo not given) | active
59 | O=[N+]([O-])c1ccc2c(c1)C=Nc1ccccc1O2 | inactive: 11.4%
60 | COc1ccc(OP(C)(=O)Nc2cccc(F)c2)cc1 (stereo not given) | inactive: 29%
61 | COc1ccccc1OP(C)(=O)Nc1cc(Cl)ccc1C (stereo not given) | inactive: -19.8%
62 | Cc1cc(C)cc(OP(C)(N)=O)c1 (stereo not given) | inactive: 3.32%
63 | CCOC(=O)c1ccc(NP(C)(=O)Oc2ccccc2)cc1 (stereo not given) | inactive: 8.88%
64 | Cc1ccc(NP(C)(=O)Oc2ccccc2)c(C)c1 (stereo not given) | inactive: -4.59%
65 | COc1ccccc1OP(C)(=O)Nc1ccc(C)cc1 (stereo not given) | inactive: -6.11%
66 | CC1=NCCc2c1[nH]c1ccccc21.O=[N+]([O-])c1cc([N+](=O)[O-])c(O)c([N+](=O)[O-])c1 | inactive: 17%
67 | Cc1cc(C)cc(OP(C)(=O)Nc2ccc(C)cc2C)c1 (stereo not given) | inactive: -11.9%
68 | CCOC(=O)c1ccc(NP(C)(=O)Oc2cc(C)cc(C)c2)cc1 (stereo not given) | inactive: 0%
69 | Cc1cc(C)cc(OP(C)(=O)Nc2ccccn2)c1 (stereo not given) | inactive: 2.58%
70 | CP(=O)(Nc1cccc(Br)c1)Oc1ccccc1 (stereo not given) | inactive: -15.2%
71 | Cc1ccc(C)c(NP(C)(=O)Oc2ccccc2)c1 (stereo not given) | inactive: 12.2%
72 | CN(Cc1cccnc1)C(=O)COc1ccc(Cl)c(Cl)c1.O=[N+]([O-])c1cc([N+](=O)[O-])c(O)c([N+](=O)[O-])c1 | inactive: 7.91%
73 | O=[N+]([O-])c1cc([N+](=O)[O-])c(-n2nnc3ccccc32)c([N+](=O)[O-])c1 | inactive: -27.7%
74 | Cc1nc2ccc3ccccc3c2s1.O=[N+]([O-])c1cc([N+](=O)[O-])c(O)c([N+](=O)[O-])c1 | inactive: 23.4%
75 | O=[N+]([O-])c1cc([N+](=O)[O-])c(-c2cnn(-c3ccccc3)c2)c([N+](=O)[O-])c1 | active
76 | CC1=C2N=C(C=C3N=C(C(C)=C4[N-][C@@](C)([C@@H]5N=C1[C@](C)(CCC(=O)NC[C@@H](C)OP(=O)([O-])O[C@H]1[C@@H](O)[C@@H](n6cnc7cc(C)c(C)cc76)O[C@@H]1CO)[C@H]5CC(N)=O)[C@@](C)(CC(N)=O)[C@@H]4CCC(N)=O)[C@@](C)(CC(N)=O)[C@@H]3CCC(N)=O)C(C)(C)[C@@H]2CCC(N)=O.[C-]#N.[Co+3] | inactive: -3.36%
77 | O=[N+]([O-])c1cc([N+](=O)[O-])c(Nc2nnnn2CCO)c([N+](=O)[O-])c1 | inactive: 1.25%
78 | CP(=O)(Nc1ccc(SC(F)(F)F)cc1)Oc1ccccc1 (stereo not given) | active
79 | CN1CCCCC1COC(=O)C1(O)c2ccccc2CCc2ccccc21 (stereo not given) | active: -69.9%
80 | COc1ccccc1OP(C)(=O)Nc1c(C)cccc1C (stereo not given) | inactive: 15.5%
